Assay results from patent publication US11389469B2, “Targeting NAD+ to treat chemotherapy and radiotherapy induced cognitive impairment, neuropathies and inactivity” (NewSouth Innovations Pty Ltd, priority 2015, dated 2022).

System: brain
Assay: Molecular response to chemotherapy in the brain during NMN treatment
Type: in vivo
Details: doxorubicin with NMN treatment, mice; prophetic example
Description: In this prophetic example, we propose performing a detailed characterization of the molecular pathways through which NMN protects against CIPN and CICI. We will repeat doxorubicin with NMN treatment or in NMNAT1 and NMNAT3 transgenic mice as in Examples 3 and 5, and cull animals one week post doxorubicin to obtain tissues for the molecular analyses described below. For NMN treatment as listed in Hypothetical Example 3, we will use a strain of transgenic reporter mice, which allow non-invasive imaging of cellular senescence caused by toxins such as chemotherapy. We will in addition repeat doxorubicin treatment in NMNAT1 and NMNAT3 transgenic mice and their WT littermates as described in Example 5.
Mitochondrial function will be assessed in freshly isolated brain mitochondria, and activity of each complex of the electrode transport chain will be assessed in a dissolved oxygen Clarke-type electrode as previously described and as shown in FIG. 3. Substrates and inhibitors that are specific for each complex of the electron transport chain will be added, allowing calculation of activity of each complex.
Apoptosis will be measured through western blotting for cleaved caspase 3 and γH2AX. DNA damage and PARP activity will be assessed by western blotting for poly-ADP ribose (PAR). Immunohistochemical analysis of apoptosis will be assessed as described below. […]

Nicotinamide Mononucleotide [NMN]
protection against chemotherapy induced loss of NAD+, impaired mitochondrial function, neuronal toxicity, cellular senescence, and apoptosis: protect
